This is an account of results in PubChem BioAssay AID588397 (National Center for Advancing Translational Sciences (NCATS), 2011).

This is a selection; strong and weak results do not stand in their true shares. Inconclusive results are not listed. Active and inactive are the calls of the source. Calls follow the shape of the dose curve; as a rule, active = well fitted inhibition curve with a large enough effect; inconclusive = small, poorly fitted or top-dose-only effect; inactive = no such curve, though single readings can be large or run the other way.
Potency is read from the fitted curve at half-maximal effect.

A short description of this experiment: qHTS of small molecules that selectively kill Giardia lamblia: Hit Validation.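 Also: viability measured as ATP content by luminescence so killing lowers signal; trophozoites exposed to compounds for 48 h anaerobically at 37 °C; nearly all actives have a fitted effect of over 65% in size.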 Particulars: Giardia lamblia trophozoite viability, dose-response. From the text:
Giardia lamblia is a human pathogen afflicting impoverished nations, and the most common cause of outbreaks of diarrhea in the United States. Giardia has been classified by the CDC as a category B bioterrorism organism. The favored anti giardiasis drugs in the US are metronidazole or tinidazole, compounds that have undesirable side effects. Moreover, increasing resistance to drug regimes and recurrence are a concern. It is thus clear that alternative drug treatments are needed.
In a collaboration between the University of Maryland, College Park and the NIH Chemical Genomics Center, a bioluminescence Giardia viability assay based on the trophozoites' ATP content was developed. This assay is suitable for high throughput screening, and miniaturized the assay for compound screening in 1536-well plates. The goal of the project is to screen the Molecular Libraries Small Molecule Repository (MLSMR) for compounds that selectively kill Giardia trophozoites.
NIH Chemical Genomics Center [NCGC]
NIH Molecular Libraries Probe Centers Network [MLPCN]
Assay Submitter (PI): Osnat Herzberg, University of Maryland, College Park, MD.
1. Dispense 2 ul/well media
2. Dispense 23 nl/well compounds
3. Dispense 4 ul/well Giardia trophozoites at a concentration of 100 cells/well
4. Incubate 48 hrs at 37 deg C anaerobically
5. Dispense 4 ul/well ATPLite 1-Step Luminescence assay kit
6. Incubate 15-30 min at room temperature
7. Read luminescence signal on ViewLux plate reader
(Quantitative high-throughput screening tests each substance at several concentrations.)
In the case of `O=[N+]([O-])c1cc([N+](=O)[O-])c(Nc2cccnc2)c([N+](=O)[O-])c1`, the Potency was active: 3260 nM. Next, `CC1=CC2OC3CC4OC(=O)C=CC=CC(=O)OCCC(C)C(O)C(=O)OCC2(CC1O)C4(C)C31CO1` (stereo not drawn): active: 163 nM; `O=[N+]([O-])c1cc([N+](=O)[O-])c(Nc2ccccn2)c([N+](=O)[O-])c1`: active: 918 nM.
